Experimental data taken from US11560358B2, “Resveratrol-piperazine co-crystals” (LETAVIS AB, priority 2018, dated 2023).

Legend:
[1] = Solubility and dissolution rate of curcumin and curcumin-piperazine co-crystal, Form 2, in water (μDISS Profiler); details: 120 minutes
Method: In situ dissolution experiments were performed with a μDISS Profiler apparatus (pION Inc., MA, USA). The system consists of an integrated diode array spectrophotometer connected to a fiber optic UV probe located directly in the reaction vessel (20 ml scintillation vial) and measures the concentration as a function of time, without filtering the solution. Measurement of the dissolution kinetics was carried out at 220 nm and 270 nm, which are optimal for the UV detection of resveratrol and […], respectively. The concentrations of the compounds in the dissolution media (water, buffer pH=4, pH=6) were calculated by means of a standard curve.

[2] = Visual observation of equal powder amounts suspended in water
[3] = 40° C., 75% relative humidity for at least 1 week
Text: The small intestine is made up by duodenum, jejunum and ileum. In humans, the pH is rapidly changes from highly acidic in the stomach to about pH 6 in the duodenum. The pH gradually increases in the small intestine from pH 6 to about pH 7.4 in the terminal ileum.

Substance | solubility in water ([1]; 1 mg/ml in water, FIG. 15, FIG. 16) | change of solubility over time ([1]; water, FIG. 15) | aqueous solubility by visual observation [2] | physical stability on storage under accelerated conditions [3]
curcumin-piperazine co-crystal, Form 2 | significantly increased solubility in comparison with curcumin | diminish gradually over time | – | –
curcumin-piperazine co-crystal, Form 1 | – | – | increased aqueous solubility compared to curcumin | physically stable
